Test results taken from patent publication US20260382729A1, “HETEROBIFUNCTIONAL COMPOUNDS AS p53 ACETYLATORS” (published 2026).

Columns and labels:
NCI-H1299 p53Y220C cells = test: cell viability, NCI-H1299 p53Y220C
Description: . […] We also confirmed that the effect of MS78 on inducing p53 Y220C K382 acetylation was abolished in p300 knockdown cells (FIG. 7F).
FIG. 7. […] . Cell viability of MS78, PK9328 and compound 33 in (A) NCI-H1299 p53-null and (B) NCI-H1299 p53Y220C cells. The cells were treated with the indicated compounds at the indicated concentrations for 72 h. The mean values ±SD from three independent experiments are shown. […] . Right, quantification of the p53K382ac protein level normalized to Vinculin from two independent experiments. […] . For siRNA transfection, control and p300 siRNA (sc-29431) were purchased from Santa Cruz Biotechnology. Briefly, NCI-H1299 cells were seeded on 6-well plates at a density of 3×10^5 cells/well (~75-80% confluency). Cells were transfected the following day with Lipofectamine 3000 transfection reagent (L3000008, ThermoFisher Scientific) and harvested 48 h after transfection. For the construction of FLAG-p53Y220C stable cell lines, transfected NCI-H1299 cells were selected with G418 for 14 days.
The cell viability assay was performed as previously described.^48 Briefly 5×10^4 cells were seeded per well into 96-well microplates. […] Cell viability was evaluated using WST-8 reagent (CK04, Dojindo). Absorbance signals were obtained with Infinite F PLEX plate reader (TECAN, Morrisville, NC) at 450 nm with 690 nm as reference wavelength after 3 h incubation at 37 °C. […]

NUGC-3 cells = test: clonogenic assay, NUGC-3
Description: Right: quantification of the normalized p53K382ac level in BxPC3 cells from three independent experiments. *P<0.05, **P<0.01, ***P<0.001. […] . GraphPad Prism 8 was used in analysis of raw data. […] . Cells were fixed and stained with crystal violet and the images are representative of two independent experiments. […] . The tumor-suppressive effect of MS78 in p53Y220C-harboring cancer cell lines was examined. […] . The clonogenic assay was performed as previously described.^48 BxPC3 or NUGC-3 cells (2000 cells per well) were seeded into 12-well tissue culture plates. After 24 h, cells were treated with 0, 1, 3 and 10 μM of indicated compounds for 14 d. Cell medium was changed with fresh full medium containing indicated compounds every 72 h. The plates were then washed with PBS and stained with the solution containing 0.5% (w/v) crystal violet and 6% (v/v) glutaraldehyde for 30 min. The plates were then washed with running water until cell colonies were clear without background color and then dried at room temperature. Epson Perfection V600 Photo was used for the acquisition of the images.

[1] = system: PNT2 normal prostate cells; test: cytotoxicity / cell viability in normal prostate cell line PNT2; conditions: read-out: GI50 (printed G150); PNT2, 72 h
Description: . […] . FIG. 14. […] . PNT2 cells were treated with the indicated compounds at the indicated concentrations for 72 h. The mean value SD for each concentration point (in technical triplicates from three biological experiments) is shown in the bar graph.
The cell viability assay was performed as previously described.^48 Briefly 5×10^4 cells were seeded per well into 96-well microplates. After 24 h, cells were treated with 3-fold serially diluted compounds in triplicate for 72 h. Cell viability was evaluated using WST-8 reagent (CK04, Dojindo). Absorbance signals were obtained with Infinite F PLEX plate reader (TECAN, Morrisville, NC) at 450 nm with 690 nm as reference wavelength after 3 h incubation at 37 °C. GraphPad Prism 8 was used in the analysis of GI50 values from the data of three independent experiments.

[2] = system: gene expression in NCI-H1299 p53Y220C cells; test: RNA-seq, NCI-H1299 isogenic cell lines
Description: FIG. 9. The p53Y220C AceTAC MS78 induces downstream signaling of canonical and non-canonical p53 pathways. (A) Heatmap enrichment in high confidence p53-target genes. NCI-H1299 p53-null and p53Y220C cell lines were treated with DMSO or 10 M of MS78 for 24 h in quadruplicate. […] . […] .
FIG. 16. […] . NCI-H1299 p53-null and p53Y220C stable cells were treated with DMSO or 10 μM of MS78 for 24 h in quadruplicates. Cells were washed three times using ice-cold 1×PBS and subsequently pelleted by centrifuging at 12,000 rpm at 4 °C. The pellet was flash frozen and sent to Azenta Life Sciences for further studies. The total RNA in 16 samples were extracted using Qiagen RNeasy Plus Mini Kit according to the protocols in the RNeasy Plus Mini Handbook published by Qiagen. RNA-seq libraries were constructed from the PolyA selected mRNA using the TruSeq RNA sample preparation guide (Illumina) and paired-end 150 base pairs sequencing on a HiSeq2500 system (Illumina) was performed at Azenta Life Sciences. The raw data in FASTQ format was analyzed as previously described.^50
After quality control of FASTQ files using the FASTQC tool (version 0.11.7) (http://www.bioinformatics.babraham.ac.uk/projects/fastqc/), we trimmed low-quality bases (Phred<10) and adapter sequences and then discarded short reads (length <60 nt) using the bbduk tool (version 37.53) (https://jgi.doe.gov/data-and-tools/bbtools/bb-tools-user-guide/). When either forward or reverse of a paired-end read were discarded, we discarded the complete paired-end read. We quantified the expression of transcripts using cleaned paired-end reads with the Salmon tool (version 0.9.1)^51 using the human reference transcriptome from The Cancer Genome Atlas (TCGA; […] . We identified as differential expressed between two conditions when the P value adjusted was at 5% and log 2(fold change) was more than 1. The heatmap was drawn using the R ComplexHeatmap library (version 2.14.0). We next performed GSEA to capture pathways perturbed towards both directions simultaneously using the 22.454 ranked genes identified in our dataset and annotated in ENSEMBL (version 94) against the 343 p53 target genes listed in previously reported study^39 using GSEAPreranked (version 4.3.2.; number of permutations=1000, no collapse) and the KEGG pathways using R GAGE (version 2.48.0).

With `CCn1c2ccc(CNCCOCCOCCOCCn3cc(COc4ccc(CCc5nc6cc(-c7c(C)noc7C)ccc6n5CCN5CCOCC5)cc4F)nn3)cc2c2ccc(-c3cc(C)cs3)cc21` the “selectivity of anti-proliferative activity” value (NCI-H1299 p53Y220C cells; Y220C-mutant cancer cells vs WT p53 cancer cells and normal cells) was “selective for cancer cells with the Y220C mutation over cancer cells with WT p53 and normal cells”, the “anti-proliferative effect upon p300 knockdown” value (NCI-H1299 p53Y220C cells; p300-siRNA-treated NCI-H1299 p53Y220C, 72 h) was “abolished the anti-proliferative effect” and the clonogenicity (NUGC-3 cells) was “marked reduction in clonogenicity”. The GI50 [1] was over 10 µM, the “normalized enrichment score (NES), 343 high-confidence p53 target genes” value ([2]; 10 μM in p53Y220C vs DMSO in p53Y220C, DMSO in p53-null and MS78 in p53-null, Q-value=0.045) was 1.32 and the “homologous recombination, base excision repair and DNA replication pathway proteins” value ([2]; KEGG, 10 μM, 24 h, vs DMSO) was “downregulation”. For the same compound, the “protein processing in endoplasmic reticulum (ER)” value ([2]; KEGG, 10 μM, 24 h, vs DMSO) was “upregulation”, the “normalized enrichment score (NES), 343 high-confidence p53-target genes” value ([2]; NCI-H1299 p53Y220C, 10 μM vs DMSO, 24 h, q-value<0.01) was 1.52 and the “BAX, PUMA (BBC3) and NOXA (PMAIP1) gene expression” value ([2]; RNA-seq, 10 μM, 24 h) was “no significant upregulation”. For the same compound, the “DDR genes (ATM, ATR, CHEK1/2) expression” value ([2]; RNA-seq, 10 μM, 24 h) was “downregulation”, the “E2F1, CDC25A, CDK1 and CDK4 gene expression” value ([2]; RNA-seq, 10 μM, 24 h) was “p53-dependent repression” and the “HMOX1 and NUPR1 gene expression” value ([2]; RNA-seq, 10 μM, 24 h) was “upregulation”. For the same compound, the “cell-cycle arrest genes (GADD45A, BTG1) expression” value ([2]; RNA-seq, 10 μM, 24 h) was “upregulation”, the “heat shock protein genes (HSPA5, DNAJB1, HSP1A1/B) expression” value ([2]; RNA-seq, 10 μM, 24 h) was “upregulation” and the “p21 gene (CDKN1A) expression” value ([2]; RNA-seq, 10 μM, 24 h) was “upregulation”. For the same compound, the “log 2 fold change of TRAIL genes (TNFRSF10A, TNFRSF10B, TNFRSF10D)” value ([2]; RNA-seq, 10 μM, 24 h, p-value<0.05) was over 2, the TRAIL gene induction ([2]; RNA-seq, TRAIL-R1, TRAIL-R2, TRAIL-R4, 10 μM, 24 h) was “statistically significant induction” and the “p53Y220C-specific differential gene expression” value ([2]; p53Y220C vs p53-null cells and DMSO controls, 10 μM, 24 h) was “upregulated TRAIL and key ferroptosis genes while downregulating the DDR pathway only in the NCI-H1299 p53Y220C cell line”.
